According to patent US12247004B2, “2-amino-N-(amino-oxo-aryl-lambda6-sulfanylidene)acetamide compounds and their therapeutic use” (Oxford Drug Design Limited, priority 2019, dated 2025):
Values after ≈ are worked out from the molar mass of the structure shown. Read-outs that look alike come from different tables or passages of the source.

System: bacteria (ATCC reference strains)
Assay: Antibacterial activity, MIC by broth micro-dilution (CLSI)
[1] = Acinetobacter baumannii, read-out: Antibacterial Activity (MIC), E = A. baumannii B1931
[2] = Enterobacter cloacae, read-out: Antibacterial Activity (MIC), B = Enterobacter cloacae B1966
[3] = Escherichia coli, ATCC25922, read-out: Antibacterial Activity (MIC), A = E. coli ATCC 25922
[4] = Haemophilus influenzae, ATCC49247, read-out: Antibacterial Activity (MIC), F = H. influenzae ATCC 49247
[5] = Klebsiella pneumoniae, ATCC700603, read-out: Antibacterial Activity (MIC), C = K. pneumoniae ATCC 700603
[6] = Pseudomonas aeruginosa, ATCC27853, read-out: Antibacterial Activity (MIC), D = P. aeruginosa ATCC 27853

Row | Compound | MIC [1] [µg/mL] | MIC [2] [µg/mL] | MIC [3] [µg/mL] | MIC (Escherichia coli, BAA2469, read-out: Antibacterial Activity (MIC), G = E. coli BAA-2469) [µg/mL] | MIC [4] [µg/mL] | MIC [5] [µg/mL] | MIC [6] [µg/mL]
1 | CC(C)C[C@H](N)C(=O)N=[S@](N)(=O)c1cccc(F)c1.Cl [ANASIA-011-1] | 16 | 4 | 0.707 | 2.52 | 2 | 8 | 64
2 | CC(C)C[C@H](N)C(=O)N=[S@@](N)(=O)c1cccc(F)c1.Cl [ANASIA-011-2] | > 64 | > 64 | 64 | – | > 64 | > 64 | > 64
3 | CC(C)C[C@H](N)C(=O)N=S(N)(=O)c1cccc(F)c1 (stereo partly shown) [ANASIA-011] | 16 (≈ 55.7 µM) | 8 (≈ 27.8 µM) | 1 (≈ 3.48 µM) | – | 4 (≈ 13.9 µM) | 8 (≈ 27.8 µM) | 32 (≈ 111 µM)
